# Test results published in patent EP3959993B1, “METHOD FOR SOLVENT FREE PRODUCTION OF AROMA CONCENTRATES” (Symrise AG, priority 2020, dated 2022).
# Values joined by “and” are separate entries in the source; they are usually repeats but may differ in a detail not shown here. Identical values can stand only once.
# What was measured:
# [1] = Second oil phase obtained by adding NaCl to the water phase (Example 4); assay type: physicochemical
# Experimental: Cross linked polystyrene was used as adsorbent material. The volume flux for loading the adsorbent was 300 ml/min.
# The adsorbent was heated to 150 °C, the temperature of the applied water steam was 160 °C.
# The water steam flux was 10 g/min and was applied for 100 min.
# The oil and water phases were separated.
# A second oil phase was separated and was collected.
# [2] = Influence of the amount of NaCl on the distribution between oil phase and water phase (Example 5); assay type: physicochemical
substance,measurement,setting,value
butanol,Loss in the water phase,[1],"46,0%"
same,Distribution in [%] between oil phase and water phase after condensation: Water phase,[2],50% and 46% and 75.1% and 64.8% and 54.2% and 52.5%
